Like-named read-outs stand apart in the source and are kept apart here.
Biological target: MASP-2 (CCP1-CCP2-SP) (Homo sapiens, UniProt O00187)
Experiment: Enzymatic Assay for MASP-2
Settings: read-out: MASP-2 Ki, fluorogenic substrate based on C2 cleavage site, room temperature, 20 mM HEPES pH 7.4
Method: Enzymatic Assay for MASP-2
The MASP-2 assay utilizes a fluorogenic substrate, based on the cleavage site for its natural substrate C2. The assay is run at room temperature in an assay buffer containing 20 mM HEPES, pH 7.4, 140 mM NaCl and 0.1% Tween 20. Assay parameters are adjusted such that the assay is linear with respect to time, enzyme, and substrate concentrations. Under these optimized assays conditions, IC50 values are equivalent to Ki values, except in a few cases of “tight binding” inhibitors. Cases of “tight binding” or possible “slow binding” inhibitors are handled by the methods described in Copeland R. A. (2013) Evaluation of Enzyme Inhibitors in Drug Discovery. 2nd Ed., John Wiley and Sons, Inc., Chapters 5-7.
The MASP-2 assay protocol is carried out as follows. Test compounds are serially diluted in DMSO and then 100 nL of each dilution is transferred to the assay plate(s). […] After 20 min at room temperature, 15 μL of a stop solution (0.1 M acetic acid) is added, mixed and the plates are read on a SpectraMax i3x Microplate Reader and exported as Excel files. Each assay plate included a “no inhibitor” (DMSO Only) control, a “no enzyme” control and a reference inhibitor control. % Activity values=100*(average test comp. fluorescence−average “no enzyme” fluorescence)/(average “DMSO only” fluorescence−average “no enzyme” fluorescence). […]

Protein sequences, listed by entry. Tags and fused reporters are not part of them. Residues count along the entry.
UniProt O00187, 445-686 limits assumed: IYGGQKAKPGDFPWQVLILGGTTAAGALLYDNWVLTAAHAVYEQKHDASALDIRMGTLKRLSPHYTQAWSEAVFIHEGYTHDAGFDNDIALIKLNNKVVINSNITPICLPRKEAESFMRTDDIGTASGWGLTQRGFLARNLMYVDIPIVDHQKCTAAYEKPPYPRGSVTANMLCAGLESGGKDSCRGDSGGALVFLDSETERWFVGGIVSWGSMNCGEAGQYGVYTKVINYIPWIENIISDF
UniProt O00187, 298-444 partner limits assumed: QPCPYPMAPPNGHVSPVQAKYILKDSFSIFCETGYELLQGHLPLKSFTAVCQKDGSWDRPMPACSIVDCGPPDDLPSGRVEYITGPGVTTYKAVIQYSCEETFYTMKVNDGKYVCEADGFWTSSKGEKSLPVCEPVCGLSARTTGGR

| Compound | Ki | Ki (tested form: 2TFA) |
| --- | --- | --- |
| CSc1ncc(NC(C)C)c(=O)n1CC(=O)NCc1cc2cnccc2[nH]1 | < 0.5 µM |  |
| CC(C)Nc1ncc(NCC2(c3ccccc3)CCC2)c(=O)n1CC(=O)NCc1cc2cnccc2[nH]1 |  | > 10 µM |
